The values below come from US4992421A, “Luteinizing hormone releasing hormone antagonist” (priority 1988, dated 1991).

Amino acid sequences for entries named in this document (tags omitted).
UniProt P30969, whole entry: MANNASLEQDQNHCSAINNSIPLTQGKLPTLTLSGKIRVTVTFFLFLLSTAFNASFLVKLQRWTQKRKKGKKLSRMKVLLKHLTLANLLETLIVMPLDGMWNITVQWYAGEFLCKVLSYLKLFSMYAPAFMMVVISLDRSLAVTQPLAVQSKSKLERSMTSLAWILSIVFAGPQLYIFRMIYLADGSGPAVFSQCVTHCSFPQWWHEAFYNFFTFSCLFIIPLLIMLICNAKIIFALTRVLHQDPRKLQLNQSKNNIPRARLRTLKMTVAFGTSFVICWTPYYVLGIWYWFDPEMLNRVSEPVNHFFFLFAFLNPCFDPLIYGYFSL

By Ki is commonly meant a dissociation constant, usually derived from enzyme kinetics or from competition with a known ligand.

In the first assay the target is LHRH receptors (rat pituitary membranes) (Rattus norvegicus, UniProt P30969). Briefly: LHRH radioligand receptor binding assay. The conditions noted are these: read-out: LHRH RECEPTOR BINDING AFFINITY KI, radioiodinated [D-Leu6-des Gly10]-LHRH ethyl amide 50 pM, 2 hours at 4° C. On the procedure:
Receptor Binding. A radioligand receptor binding assay is performed in a similar way to that described in the literature (J. Marion et al., Mol. Pharmacol. 19 399 (1981)). [D-Leu^6 -des Gly^10 ]-LHRH ethyl amide was radioiodinated by the chloramine-T method and used as the radioligand. Pituitary membranes containing LHRH receptors are prepared in batches from quick-frozen rat pituitaries obtained from Hilltop Labs. The radioligand (50 pM), receptors, and compounds to be tested are coincubated for 2 hours at 4° C. Bound ligand is separated from free ligand via centrifugation and aspiration. Compounds are tested at six half-log concentration increments, and the equilibrium dissociation constant (KI) is calculated from the concentration which displaces 50% of specifically bound radioligand.
As for `O=C(NCC1COC(Cn2ccnc2)(c2ccc(Cl)cc2Cl)O1)[C@H](Cc1c[nH]cn1)NC(=O)[C@@H]1CCC(=O)N1C(=O)OCc1ccccc1` (stereo partly shown), the inhibition constant (Ki) was 1900 nM.
For the compound `O=C1CCC(C(=O)NC(Cc2cnc[nH]2)C(=O)NC(Cc2c[nH]c3ccccc23)C(=O)NCC2COC(Cn3ccnc3)(c3ccc(Cl)cc3Cl)O2)N1` (stereo not shown), the Ki worked out at 2000 nM.
In the case of `CC(C)(C)OC(=O)N[C@@H](Cc1c[nH]c2ccccc12)C(=O)N1CCC[C@H]1C(=O)N[C@@H](Cc1c[nH]cn1)C(=O)NCC1COC(Cn2ccnc2)(c2ccc(Cl)cc2Cl)O1` (stereo partly shown), the Ki stood at 500 nM.
On the same count and under the same terms, the figure for `O=C(NCC1COC(Cn2ccnc2)(c2ccc(Cl)cc2Cl)O1)[C@H](Cc1c[nH]cn1)NC(=O)[C@@H]1CCCN1C(=O)OCc1ccccc1` (stereo partly shown) is 1120 nM; for `O=C(N[C@@H](Cc1ccccc1)C(=O)N1CCC[C@H]1C(=O)N[C@@H](Cc1c[nH]cn1)C(=O)NCC1COC(Cn2ccnc2)(c2ccc(Cl)cc2Cl)O1)OCc1ccccc1` (stereo partly shown) it is 970 nM.
Turning to `O=C(NCC1COC(Cn2ccnc2)(c2ccc(Cl)cc2Cl)O1)[C@@H]1CCC(=O)N1C(=O)OCc1ccccc1` (stereo partly shown), the inhibition constant (Ki) is 31000 nM.
On to `O=C1CC[C@@H](C(=O)N[C@@H](Cc2c[nH]cn2)C(=O)NCC2COC(Cn3ccnc3)(c3ccc(Cl)cc3Cl)O2)N1` (stereo partly shown), for which the Ki worked out at 10000 nM.

The assay is the same for the next values; noted with them: read-out: LHRH RECEPTOR BINDING AFFINITY KI, radioiodinated [D-Leu6-des Gly10]-LHRH ethyl amide 50 pM, 2 hours at 4° C., tested form: 2HCl.
`N[C@@H](Cc1c[nH]c2ccccc12)C(=O)NCC1COC(Cn2ccnc2)(c2ccc(Cl)cc2Cl)O1` (stereo partly shown): the Ki was 10000 nM.

Staying with this assay, now noted: read-out: LHRH RECEPTOR BINDING AFFINITY KI, radioiodinated [D-Leu6-des Gly10]-LHRH ethyl amide 50 pM, 2 hours at 4° C., tested form: TFA.
Regarding `O=C(NCC1COC(Cn2ccnc2)(c2ccc(Cl)cc2Cl)O1)[C@H](Cc1c[nH]cn1)NC(=O)[C@@H]1CCCN1C(=O)OCC(c1ccccc1)c1ccccc1` (stereo partly shown), the Ki amounted to 480 nM.
On to `N[C@@H](CO)C(=O)N[C@@H](Cc1c[nH]c2ccccc12)C(=O)NCC1COC(Cn2ccnc2)(c2ccc(Cl)cc2Cl)O1` (stereo partly shown), for which the Ki came out at 4780 nM.
